Measured values taken from US10022359B2, “1,9-diazaspiro undecane compounds having multimodal activity against pain” (LABORATORIOS DEL DR. ESTEVE S.A., priority 2014, dated 2018).

System: human σ1 receptor and human μ-opioid receptor
Test: Human σ1 receptor and human μ-opioid receptor radioligand assays (dual binding)
Design: key to the marks not given beside the values
Details: combined class for Ki-μ ([3H]-DAMGO, transfected CHO-K1 membranes) and Ki-σ1 ([3H](+)-pentazocine, transfected HEK-293 membranes)

Structure (SMILES)	μ and σ1 dual binding
c1ccc(CN2CCC3(CC2)COCCN3c2ccccc2)cc1	++
O=C(Cc1ccccc1)N1CCOCC12CCN(CCc1ccccc1)CC2	++
c1ccc(CN2CCOCC23CCN(CCc2ccncc2)CC3)cc1	++
O=C(C1CC1)N1CCOCC12CCN(CCc1ccccc1)CC2	++
c1ccc(N2CCOCC23CCN(CCc2ccncc2)CC3)cc1	++
O=C(c1ccccc1)N1CCOCC12CCN(Cc1ccccc1)CC2	++
O=C(c1ccccc1F)N1CCOCC12CCN(CCc1ccccc1)CC2	++
c1ccc(CCN2CCC3(CC2)COCCN3CC2CC2)cc1	++
CC(=O)Nc1ccc(CN2CCOCC23CCN(CCc2ccccc2)CC3)cc1	++
c1ccc(N2CCOCC23CCN(CCc2ccccn2)CC3)cc1	++
O=C(CC1CC1)N1CCOCC12CCN(CCc1ccccc1)CC2	++
O=C(c1nccs1)N1CCOCC12CCN(CCc1ccccc1)CC2	++
COc1ccc(CN2CCOCC23CCN(CCc2ccccc2)CC3)cc1	++
c1ccc(CN2CCOCC23CCN(CCc2ccccn2)CC3)cc1	++
c1ccc(N2CCOCC23CCN(CCc2cccnc2)CC3)cc1	++
FC(F)(F)c1ccc(CCN2CCC3(CC2)COCCN3c2ccccc2)cn1	++
